Measurements taken from US9469615B2, “Quinoxalines and AZA-quinoxalines as CRTH2 receptor modulators” (Merck Sharp & Dohme Corp., priority 2010, dated 2016).

The chains behind the UniProt entries cited, without tags or fusion partners.
UniProt Q9Y5Y4, whole entry: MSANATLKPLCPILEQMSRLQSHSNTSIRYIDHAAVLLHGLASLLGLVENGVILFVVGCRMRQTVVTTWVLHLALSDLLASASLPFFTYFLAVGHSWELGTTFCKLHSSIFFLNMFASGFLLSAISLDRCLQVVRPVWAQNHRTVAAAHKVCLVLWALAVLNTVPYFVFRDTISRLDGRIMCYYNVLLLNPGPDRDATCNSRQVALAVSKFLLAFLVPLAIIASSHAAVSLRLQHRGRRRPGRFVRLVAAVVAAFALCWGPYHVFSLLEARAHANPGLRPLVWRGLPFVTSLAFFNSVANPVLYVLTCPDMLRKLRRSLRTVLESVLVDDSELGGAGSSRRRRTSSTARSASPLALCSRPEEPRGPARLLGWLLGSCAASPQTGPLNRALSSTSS

Target: hCRTH2 (Homo sapiens, UniProt Q9Y5Y4)
Experiment: Radioligand binding assay ([3H]PGD2 competition, HEK-hCRTH2 membranes)

SMILES | Ki ([3H]PGD2 competition, Table B) [nM] | Ki ([3H]PGD2 binding, rated A-E (Table A)) [nM]
CC(CCc1nc2cc(C(=O)N3CCN(c4ccccc4)CC3)ccc2nc1-c1ccc(C(F)(F)F)cc1)CC(=O)O (stereo not shown) | 2.1 to 20 | –
O=C(O)CCCc1nc2cc(C(=O)N3CCN(c4ccc(F)cc4)CC3)ccc2nc1-c1ccccc1 | 201 to 700 | –
O=C(O)CCCCc1nc2cc(C(=O)N[C@@H]3CCS(=O)(=O)c4ccccc43)ccc2nc1-c1ccc(F)cc1 | 201 to 700 | –
O=C(O)CCCCc1nc2cc(C(=O)N[C@H](c3ccc(F)cc3)C(F)(F)F)ccc2nc1-c1ccc(Cl)cc1 | – | 2.1 to 20
